Experimental data reported in ChEMBL document CHEMBL1126779, “Antagonism of 1-(2,5-dimethoxy-4-methylphenyl)-2-aminopropane stimulus with a newly identified 5-HT2- versus 5-HT1C-selective antagonist” (J Med Chem, 1993).
This is a selection: effects in other tests are not listed, and their absence says nothing.

The chains behind the UniProt entries cited, without tags or fusion partners. Residues count along the entry.
UniProt P19327, whole entry: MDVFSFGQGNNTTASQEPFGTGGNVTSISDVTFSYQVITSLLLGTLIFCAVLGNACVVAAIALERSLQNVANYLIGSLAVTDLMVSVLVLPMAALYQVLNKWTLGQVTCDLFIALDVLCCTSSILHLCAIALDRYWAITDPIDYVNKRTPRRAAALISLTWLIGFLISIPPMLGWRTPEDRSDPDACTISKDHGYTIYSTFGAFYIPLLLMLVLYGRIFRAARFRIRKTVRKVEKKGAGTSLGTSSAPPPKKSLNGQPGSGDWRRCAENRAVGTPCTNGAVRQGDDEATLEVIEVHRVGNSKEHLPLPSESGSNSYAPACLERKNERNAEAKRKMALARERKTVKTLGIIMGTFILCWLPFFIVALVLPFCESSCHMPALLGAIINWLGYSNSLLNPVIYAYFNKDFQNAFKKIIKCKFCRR
UniProt P08909, 33-460 limits assumed: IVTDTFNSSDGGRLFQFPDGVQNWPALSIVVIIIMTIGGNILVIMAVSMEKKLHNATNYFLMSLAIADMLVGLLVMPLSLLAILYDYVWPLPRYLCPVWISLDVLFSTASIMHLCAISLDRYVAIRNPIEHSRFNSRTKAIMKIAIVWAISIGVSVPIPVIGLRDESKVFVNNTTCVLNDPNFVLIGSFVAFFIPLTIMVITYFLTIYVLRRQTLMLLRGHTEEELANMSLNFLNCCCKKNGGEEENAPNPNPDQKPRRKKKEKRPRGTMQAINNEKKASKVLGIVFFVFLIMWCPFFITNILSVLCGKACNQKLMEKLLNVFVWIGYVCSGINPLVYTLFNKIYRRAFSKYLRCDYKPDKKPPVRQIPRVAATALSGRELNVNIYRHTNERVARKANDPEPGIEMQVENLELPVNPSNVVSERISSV
UniProt P30994, whole entry: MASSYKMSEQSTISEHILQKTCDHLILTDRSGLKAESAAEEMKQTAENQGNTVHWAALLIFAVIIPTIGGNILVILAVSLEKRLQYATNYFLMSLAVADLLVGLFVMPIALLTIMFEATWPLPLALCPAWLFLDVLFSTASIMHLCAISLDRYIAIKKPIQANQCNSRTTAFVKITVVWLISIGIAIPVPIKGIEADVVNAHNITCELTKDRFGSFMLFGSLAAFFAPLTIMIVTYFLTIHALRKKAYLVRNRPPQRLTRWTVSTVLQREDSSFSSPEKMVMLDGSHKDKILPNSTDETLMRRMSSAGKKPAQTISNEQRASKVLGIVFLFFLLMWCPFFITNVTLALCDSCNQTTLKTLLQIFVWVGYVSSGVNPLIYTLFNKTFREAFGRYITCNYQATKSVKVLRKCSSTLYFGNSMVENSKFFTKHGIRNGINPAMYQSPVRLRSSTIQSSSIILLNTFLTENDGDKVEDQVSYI
UniProt P14842, whole entry: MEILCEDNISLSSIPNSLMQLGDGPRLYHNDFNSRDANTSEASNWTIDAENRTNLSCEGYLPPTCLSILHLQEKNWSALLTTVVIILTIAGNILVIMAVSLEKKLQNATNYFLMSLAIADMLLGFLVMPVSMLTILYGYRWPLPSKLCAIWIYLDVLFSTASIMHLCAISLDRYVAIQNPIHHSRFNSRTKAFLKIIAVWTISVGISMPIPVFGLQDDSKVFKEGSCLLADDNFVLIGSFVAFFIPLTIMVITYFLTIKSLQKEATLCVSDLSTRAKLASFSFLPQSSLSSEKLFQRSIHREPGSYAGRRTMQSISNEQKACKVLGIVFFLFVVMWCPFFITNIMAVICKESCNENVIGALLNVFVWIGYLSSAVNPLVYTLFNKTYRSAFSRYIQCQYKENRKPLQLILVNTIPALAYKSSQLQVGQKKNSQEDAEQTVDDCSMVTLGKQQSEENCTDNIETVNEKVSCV

Key:
[1] = biological target: 5-hydroxytryptamine receptor 1A (Rattus norvegicus, UniProt P19327); assay: Tested for binding affinity against 5-hydroxytryptamine 1A receptor from rat frontal cortical regions using [3H]8-OH-DPAT as radioligand
[2] = biological target: 5-hydroxytryptamine receptor 2C (Rattus norvegicus, UniProt P08909); assay: Tested for binding affinity against 5-hydroxytryptamine 1C receptor from rat frontal cortical regions using [3H]mesulergine as radioligand
[3] = biological target: Serotonin 2 (5-HT2) receptor (Rattus norvegicus, UniProt P30994+P08909+P14842); assay: Tested for binding affinity against 5-hydroxytryptamine 2 receptor from rat frontal cortical regions using [3H]ketanserin as radioligand

O=C(CCCN1CCC(Nc2ccccc2)CC1)c1ccc(F)cc1
Ki [1]: 250 nM | Ki [2]: 2300 nM | Ki [3]: 34 nM
